The nature of the data set: pKa of amine softening materials (titration curve of a 1% dispersion with acid). The data set is classed as physicochemical. The settings on record: amine softening material. The source says:
The pKa value is a well-known parameter related to the protonation of materials. For a certain amine material the pKa can be determined by considering the protonation reaction of the amine material: amine + H⁺ -------- amineH⁺ The pKa of the amine is the pH value, at which the amount of unprotonated amine is equal to the amount of protonated amine. […]

As to “dihardened tallow methyl amine [Armeen M2HT]”, the pKa came out at 4.5.

The term pKa denotes the negative logarithm of the acid dissociation constant. Low readings indicate a stronger acid or weaker base, high ones a weaker acid or stronger base.

Values taken from patent publication EP0417987B1, “Fabric softening” (UNILEVER PLC, priority 1989, dated 1991).
